Source: patent publication US5998393A, “Methods for assessing 1,25(OH)2 D3 activity in skin and for enhancing the therapeutic use of 1,25(OH)2 D3” (priority 1997, dated 1999)

Tested on: 24-hydroxylase mRNA
Experiment: 24-OHase mRNA induction in human skin in vivo after topical application (Northern blot)
Conditions: for 24-OHase mRNA level: n=15

Row | Compound | increase in 24-OHase mRNA induction (FIG. 1, single agents, 0.002% D3 or 0.1% 9cRA, topical, occluded 2 days) | 24-OHase mRNA level (FIG. 5, 0.002% 1,25(OH)2 D3, 0.1% 9-c-RA, or both, 48 h occlusion, maximum = 0.05% 1,25(OH)2 D3) | enhancement of 24-OHase mRNA level induced by a low dose of 1,25(OH)2 D3 (co-applied with low dose (0.002%) 1,25(OH)2 D3, discussion) | 24-OHase mRNA level (FIG. 6, 1,25(OH)2 D3, 0.1% t-RA, or both, two days occlusion) | increase in 24-OHase transcription level compared to 1,25(OH)2 D3 treatment alone (RA isomer (0.1%) added to 0.002% 1,25(OH)2D3) [%]
1 | CC1=C(/C=C/C(C)=C\C=C\C(C)=C\C(=O)O)C(C)(C)CCC1 [9-c-RA, 9-cis retinoic acid] | no significant increase | did not change | synergistically enhance |  | 
2 | CC1=C(/C=C/C(C)=C/C=C/C(C)=C/C(=O)O)C(C)(C)CCC1 [t-RA, All-trans-retinoic acid] |  |  |  | did not induce | 50
